This passage reports inhibition results from PubChem BioAssay AID1778 (Sanford-Burnham Center for Chemical Genomics, 2009).

Protein sequences, listed by entry. Tags and fused reporters are not part of them. Lines headed by an entry give the natural chain unless they say otherwise; changes in a name come on top.
UniProt P41145: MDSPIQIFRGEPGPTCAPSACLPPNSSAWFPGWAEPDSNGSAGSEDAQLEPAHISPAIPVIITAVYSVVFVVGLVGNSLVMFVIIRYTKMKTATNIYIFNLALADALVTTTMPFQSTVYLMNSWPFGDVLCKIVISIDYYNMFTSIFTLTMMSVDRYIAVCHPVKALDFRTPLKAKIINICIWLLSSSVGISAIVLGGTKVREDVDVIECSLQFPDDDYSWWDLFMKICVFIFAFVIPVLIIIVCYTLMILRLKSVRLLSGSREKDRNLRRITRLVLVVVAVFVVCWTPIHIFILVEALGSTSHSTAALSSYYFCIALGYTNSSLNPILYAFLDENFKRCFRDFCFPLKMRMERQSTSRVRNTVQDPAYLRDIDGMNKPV

SMILES strings stand for the structures. Some of the results follow. Potency and affinity values are given separately. The source made the active and inactive calls. Rule as the data show it: active = inhibition above about 50%; inactive = the rest.

This test has as its target Kappa-type opioid receptor (Homo sapiens) (UniProt P41145). As to the kind of experiment: KOR antagonists, beta-arrestin recruitment, cell-based, luminescence, uHTS (AID 1778). To be noted: antagonist mode, at 10 µM, stronger effect = higher value. (In general: Activated receptors often draw arrestin, which recruitment assays turn into a signal.)
`Cc1nc2ccccc2n1CC(=O)N/N=C\c1ccccn1`: the inhibition (as a rule, the relative decrease from the control value, in per cent) was inactive: -17.7%. The same measure for `CC(C)NC(=O)Cn1c(SCC(=O)N2CCCc3ccccc32)nc2ccccc21`: inactive: 9.9%; for `Cc1ccc(NC(=O)CCC(=O)N/N=C/C=C/c2ccccc2)cc1`: inactive: 12.1%.

Take `Cc1ccc2c(c1)[C@@H]1CN(C)CC[C@@H]1N2C(=O)Nc1cccc(C(F)(F)F)c1`: the inhibition is inactive: -38%. The value for `CCOC(=O)c1ccccc1NC(=O)CSc1nc2ccccc2n1CC(=O)N1CCCC1` was inactive: 21.3%. The value for `Cc1ccc(-c2csc(NC(=O)Cn3cnc4c3c(=O)n(C)c(=O)n4C)n2)cc1C` was inactive: -1.1%; that for `CSc1nc2ccccc2n1CC(=O)Nc1ccccc1` was inactive: -31.5%; that for `O=C(Nc1ccc2c(c1)nc1n2CCN(C2CCCCC2)C1)NC1CCCCC1` was inactive: 13.7%. Regarding `Cc1nc2ccccc2n1CCN1CCOCC1`, the inhibition was inactive: -25.7%. Consider `Cc1ccc2c(c1)C1CN(C)CCC1N2C(=O)Cc1cccs1` (stereo not drawn), for which the inhibition was inactive: 33.8%. `CN1C(=O)C2(Nc3ccccc3-c3nc4ccccc4n32)c2ccccc21` (stereo not drawn): the inhibition was inactive: 5%. The same measure for `CCC(C)[C@H](NC(=O)N1CCn2c1nc1ccccc12)C(=O)NCc1ccccc1` (stereo partly drawn): inactive: -12.3%; for `Cc1ccc(NC(=O)Cn2cnc3ccccc32)cc1C`: inactive: -17.6%. Regarding `COc1ccc(N2C(=O)CC(n3cnc4ccccc43)C2=O)cc1` (stereo not drawn), the inhibition is inactive: -9%.

With `COc1ccccc1NC(=O)Cn1cnc2c1c(=O)n(C)c(=O)n2C`, the inhibition is inactive: -20%.

In the case of `NC(=O)CS(=O)(=O)c1nc2ccccc2n1CC(=O)N1CCCCC1`, the inhibition is inactive: -12.3%. `O=C(Cn1cnc2ccccc21)NC(c1ccccc1)c1ccccc1`: the inhibition was inactive: -27.9%. Turning to `Cc1c2c(nc3ccccc13)SC(C(Cl)Cl)C2` (stereo not drawn), the inhibition is inactive: -7.9%. On to `O=C(OC1CN2CCC1CC2)C12CC3CC(CC(C3)C1)C2` (stereo not drawn), for which the inhibition is inactive: -4.2%.

`O=C1C2CCCCC2C(=O)N1c1ccc(NC2CCN(Cc3ccccc3)CC2)c([N+](=O)[O-])c1` (stereo not drawn): the inhibition is inactive: -6.4%.

As for `CCn1cc(C(=O)N2CCn3c(nc4ccccc43)C2)c(=O)c2ccc(C)nc21`, the inhibition is inactive: -31.7%. On to `Cn1c(=O)c2c(nc(Cl)n2CC(=O)N2CCCCC2)n(C)c1=O`, for which the inhibition was inactive: -14.4%. In the case of `Cc1cc(=O)[nH]c(N[N+](=O)[O-])n1`, the inhibition was inactive: 13.1%. Regarding `c1ccc2c(c1)ncn2CCN1CCCCC1`, the inhibition was inactive: -19.3%. `Cn1c(=O)c2c(ncn2CC(=O)Nc2nccs2)n(C)c1=O`: the inhibition was inactive: 20%. The same measure for `C=CCSc1nnc(NC(=O)Cn2cnc3c2c(=O)n(C)c(=O)n3C)s1`: inactive: -10.4%; for `COc1ccc(CNC(=O)CCNC(=O)N2CCn3c2nc2ccccc23)cc1`: inactive: -15.7%; for `Cc1cc2ncn(C3CC(=O)N(C)C3=O)c2cc1C` (stereo not drawn): inactive: 19.3%. The same measure for `Cc1ccc2c(c1)C1CN(C)CCC1N2C(=S)Nc1ccc(Cl)cc1Cl` (stereo not drawn): inactive: -1.2%. In the case of `Cn1c(=O)c2c(nc(NCc3ccccc3)n2CC(N)=O)n(C)c1=O`, the inhibition was inactive: 26.4%.

With `Cc1ccc(/C=N/NC(=O)Cn2cnc3ccccc32)o1`, the inhibition is inactive: 25.5%. On to `CC(C)N(C(=O)Cn1c(-c2ccccc2Cl)nc2ccccc21)c1ccccc1`, for which the inhibition was inactive: 33.1%. For `Cn1c(=O)[nH]c(=O)c2c1nc(N1CCCCCC1)n2CCN1CCCCCC1`, the inhibition was inactive: -48.9%. As to `CCOC(=O)c1cccc(NC(=O)Cn2c(CC(=O)NC)nc3ccccc32)c1`, the inhibition was inactive: 26.1%. For `CSCC[C@H](NC(=O)N1CCn2c1nc1ccccc12)C(=O)NCc1ccccc1`, the inhibition is inactive: -76.5%. Turning to `C(=N\c1nc2ccccc2n1CCN1CCCCC1)/c1cccs1`, the inhibition was inactive: 15.9%. Take `Cn1c(=O)[nH]c(=O)c2c1nc(CN1CCN(c3ccc(F)cc3)CC1)n2CCN1CCOCC1`: the inhibition was inactive: 16.1%. For the molecule `COc1ccc2nc(NP(=O)(c3ccccc3)c3ccccc3)sc2c1`, the inhibition is inactive: -25.2%. In the case of `CCCn1c(=O)[nH]c(=O)c2c1nc(-c1ccc3c(c1)OCCO3)n2CCN1CCOCC1`, the inhibition was inactive: -16.1%.

`CC(O)CNc1nc2ccccc2n1CC(=O)N1CCN(Cc2ccccc2)CC1` (stereo not drawn): the inhibition was inactive: -32%. The value for `CCCCNc1nc2ccccc2n1CC(=O)Nc1c(C)cccc1CC` was inactive: 7.5%. Take `COc1cccc(NC(=O)[C@@H](NC(=O)N2CCn3c2nc2ccccc23)C(C)C)c1`: the inhibition is inactive: 5%. As for `COc1cc(I)ccc1[As](=O)(O)O`, the inhibition is inactive: 10.7%. Regarding `c1ccc(CN2CCC(Nc3nc(-c4ccccc4)nc4ccccc34)CC2)cc1`, the inhibition is inactive: -15.4%. Take `Cc1ccc2oc(-c3cccc(NC(=O)Cn4cnc5c(=O)n(C)c(=O)n(C)c54)c3)nc2c1`: the inhibition was inactive: -19.3%.

As to `Cc1cccc(CSc2nc3ccncc3n2CC(=O)Nc2ccc(C)c(C)c2)c1`, the inhibition is inactive: 6.7%. As for `Cc1cc2ncn(C3CC(=O)N(Cc4ccccc4)C3=O)c2cc1C` (stereo not drawn), the inhibition is inactive: -9.6%. The same measure for `COc1cc(NC(=O)[C@@H](NC(=O)N2CCn3c2nc2ccccc23)C(C)C)cc(OC)c1`: inactive: -25.9%; for `Nc1nonc1-c1nc2ccccc2n1CC(=O)N1CCN(c2ccc(F)cc2)CC1`: inactive: -0.9%; for `CN(c1ccccc1)S(=O)(=O)c1cccc(NC(=O)Cn2cnc3c2c(=O)n(C)c(=O)n3C)c1`: inactive: -21.1%. The same measure for `CN(C)CCn1c(=N)n(CC(O)c2ccc(Cl)c(Cl)c2)c2ccccc21` (stereo not drawn): inactive: -2.1%; for `COc1ccc(N/C(=N/P(=O)(N2CCOCC2)N2CCOCC2)N2CCOCC2)cc1`: inactive: 6.2%. Regarding `CN(C)C(=O)Cn1c(SCC(=O)NCc2ccc3c(c2)OCO3)nc2ccccc21`, the inhibition is inactive: -83.1%. For `c1ccc2c(c1)nc1n2CCN1CCNC1CCCCC1`, the inhibition is inactive: -40.7%.

Turning to `Cn1c(=O)c2ncn(CC(=O)Nc3cccc(-c4nc5ccccc5s4)c3)c2n(C)c1=O`, the inhibition is inactive: -52.6%. `Cc1ccc(Cn2nnnc2CN2CCC(n3nnc4cc(C(F)(F)F)ccc43)CC2)cc1`: the inhibition was inactive: -13.1%. Take `Nc1nonc1-c1nc2ccccc2n1CC(=O)NC1CCCC1`: the inhibition is inactive: -11.8%. Turning to `O=C(O)CCc1nn2c3ccccc3n(CCN3CCCCC3)c2nc1=O`, the inhibition is inactive: -12.1%.
